The text below walks through data of PubChem BioAssay AID1136 (Sanford-Burnham Center for Chemical Genomics, 2008).

Protein sequences, listed by entry. Tags and fused reporters are not part of them.
UniProt P05186, whole entry: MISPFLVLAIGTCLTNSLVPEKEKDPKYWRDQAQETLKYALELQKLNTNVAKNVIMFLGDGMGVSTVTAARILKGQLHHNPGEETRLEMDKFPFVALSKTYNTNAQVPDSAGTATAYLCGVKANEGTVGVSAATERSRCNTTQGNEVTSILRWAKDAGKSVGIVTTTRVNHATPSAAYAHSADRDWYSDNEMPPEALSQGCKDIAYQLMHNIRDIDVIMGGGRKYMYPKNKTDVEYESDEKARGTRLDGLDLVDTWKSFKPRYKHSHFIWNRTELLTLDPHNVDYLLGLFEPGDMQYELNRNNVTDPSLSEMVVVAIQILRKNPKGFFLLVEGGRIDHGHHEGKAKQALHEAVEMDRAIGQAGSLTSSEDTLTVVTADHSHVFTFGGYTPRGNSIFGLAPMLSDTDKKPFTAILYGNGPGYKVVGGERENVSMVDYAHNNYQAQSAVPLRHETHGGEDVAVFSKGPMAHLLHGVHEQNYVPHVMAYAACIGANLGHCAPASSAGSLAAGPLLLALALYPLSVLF

This is one part of the list. Activity calls are given as the source filed them.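 Rule for the calls: active = activation factor at least 2 at 20 µM; inactive = the rest.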

The experiment addresses Alkaline phosphatase, tissue-nonspecific isozyme (Homo sapiens) (UniProt P05186). The experiment is described as follows: activation of human TNAP, high DEA acceptor – biochemical, luminescence, uHTS, primary screen (AID 1136). To be noted: purified TNAP, CDP-star luminescence, 1 M DEA, 30 min, at 20 µM; active compounds read high, 0 = EDTA background, 1 = DMSO-only activity.
As to `COc1ccc(NC2CCN(CCc3ccccc3)CC2)c(OC)c1`, the activation factor entry was “inactive”. For the compound `O=C(OC1CN2CCC1CC2)C1c2ccccc2Oc2ccccc21` (stereo not given), the activation factor entry is “inactive”. Turning to `CCOC(=O)N1CCC(Nc2ccc(OC)cc2)CC1`, the activation factor entry was “inactive”. Turning to `O=C(NCC1(N2CCOCC2)CCCCC1)c1cc2ccccc2o1`, the activation factor entry is “inactive”. To `COc1ccc(C(=O)NCC2(N3CCCCC3)CCCCC2)c(OC)c1OC` belongs inactive: 1.1; to `CC(C)c1ccc(NC2CCN(C(=O)OC(C)(C)C)CC2)cc1`, inactive: 1.1.

On to `CN(C)c1cccc(C(=O)NCC2(N3CCCCC3)CCCCC2)c1`, for which the activation factor entry was “inactive”. As for `COc1ccc(CN(CCCl)CCCl)cc1Cl`, the activation factor was inactive: 1.1. `O=C(NCC1(N2CCOCC2)CCCCC1)c1cc(=O)[nH]c2ccccc12`: the activation factor entry was “inactive”. Take `COc1ccc(NC2CCN(C(=O)OC(C)(C)C)CC2)cc1`: the activation factor result was “inactive”.

Turning to `CN1CCN(CCOC(=O)C(O)(c2ccccc2)c2ccccc2)CC1`, the activation factor is inactive: 1.1.

For `N#CC1(Nc2ccccc2)CCN(CCc2ccccc2)CC1`, the activation factor was inactive: 1.1. To `O=C(NCC1(N2CCCCC2)CCCCC1)c1cccc([N+](=O)[O-])c1` belongs “inactive”. To `c1ccc(CN2CCC(Nc3ccccc3)CC2)cc1` belongs “inactive”.

Consider `N#Cc1ccc(C(=O)NCC2(N3CCCCC3)CCCCC2)cc1`, for which the activation factor entry is “inactive”. Turning to `O=C(OC1CN2CCC1CC2)C1c2ccccc2C=Cc2ccccc21` (stereo not given), the activation factor is inactive: 1.1. As for `N/C(=N\O)c1c(N)no[n+]1[O-]`, the activation factor is inactive: 1.1. Take `COc1ccc(C(=O)NCC2(N3CCOCC3)CCCCC2)cc1OC`: the activation factor result was “inactive”. To `COc1cc(OC)cc(C(=O)NCC2(N3CCOCC3)CCCCC2)c1` belongs “inactive”. Regarding `CCC(CO)(C(=O)OC1CN2CCC1CC2)c1ccccc1` (stereo not given), the activation factor result is “inactive”.

For the compound `CC(C)(C)OC(=O)N1CCC(Nc2ccccc2)CC1`, the activation factor result was “inactive”. Turning to `CCOc1ncccc1C(=O)NCC1(N2CCOCC2)CCCCC1`, the activation factor was inactive: 1.1. Turning to `CN(C)c1ccc(C(=O)NCC2(N3CCCCC3)CCCCC2)cc1`, the activation factor is inactive: 1.1.

With `CCN1CCC(Nc2cccc(F)c2)CC1`, the activation factor entry is “inactive”. To `Fc1ccccc1NC1CCN(Cc2ccccc2)CC1` belongs inactive: 1.1.
